# Results as given in PMC7468108 (Communications Biology, 2020).
# Like-named read-outs stand apart in the source and are kept apart here.
# System: HEK-293 cells
# Settings: 24 h; for %Viability: human
# Method: The SH-SY5Y and HEK-293 cell lines (2 × 10^5 cells/mL) were cultured in 96-well tissue microplates (100 µL/well) and allowed to adhere overnight at 37 °C. The conjugate molecules were dissolved in DMEM:nutrient mixture F12 (Ham’s) (1:1) (Biological Industries, Israel) at different concentrations. The negative control was prepared as medium without hybrid molecules and treated in the same manner. 100 µL of medium with or without hybrid molecules were added to each well in triplicate. Following incubation for 24 h at 37 °C, cell viability was evaluated using the 2,3-bis(2-methoxy-4-nitro-5-sulfophenyl)-2H-tetrazolium-5-carboxanilide (XTT) cell proliferation assay kit (Biological Industries, Israel) according to the manufacturer’s instructions. Briefly, 100 µL of activation reagent was added to 5 mL of XTT reagent, followed by the addition of 50 µL of activated-XTT solution to each well. After 2 h incubation at 37 °C, color intensity was measured using an ELISA microplate reader at 450 nm and 630 nm. […] Each experiment was repeated minimum three times.
smiles,measurement,setting,value
CC[C@H](C)[C@H](NC(=O)[C@H](C)NC(=O)CNC(=O)[C@H](Cc1ccccc1)NC(=O)[C@H](CC(N)=O)NC(=O)[C@H](CC(N)=O)NC(=O)[C@H](CO)NC(=O)[C@H](CO)NC(=O)[C@H](Cc1c[nH]cn1)NC(=O)[C@@H](NC(=O)[C@H](CC(C)C)NC(=O)[C@H](Cc1ccccc1)NC(=O)[C@H](CC(N)=O)NC(=O)[C@H](C)NC(=O)[C@H](CC(C)C)NC(=O)[C@H](CCCNC(=N)N)NC(=O)[C@H](CCC(N)=O)NC(=O)[C@@H](NC(=O)[C@H](C)NC(=O)[C@@H]1CSSC[C@H](NC(=O)[C@@H](N)CCCCN)C(=O)N[C@@H](CC(N)=O)C(=O)N[C@@H]([C@@H](C)O)C(=O)N[C@@H](C)C(=O)N[C@@H]([C@@H](C)O)C(=O)N1)[C@@H](C)O)C(C)C)C(=O)N[C@@H](CC(C)C)C(=O)N[C@@H](CO)C(=O)N[C@@H](CO)C(=O)N[C@H](C(=O)N[C@@H](CC(N)=O)C(=O)N[C@H](C(=O)NCC(=O)N[C@@H](CO)C(=O)N[C@@H](CC(N)=O)C(=O)N[C@H](C(=O)N[C@@H](Cc1ccc(O)cc1)C(N)=O)[C@@H](C)O)C(C)C)[C@@H](C)O [hIAPP],IC50,,~10 µM
same,%Viability,1 µM,80.064%
same,%Viability,5 µM,61.929%
same,%Viability,15 µM,44.440%
same,%Viability,20 µM,36.315%
